According to patent US9242969B2, “Biaryl amide compounds as kinase inhibitors” (Novartis AG, priority 2013, dated 2016):
pIC50: −log10 of the molar value.

Amino acid sequences for entries named in this document (tags omitted).
UniProt P04049, whole entry Y340E/Y341E: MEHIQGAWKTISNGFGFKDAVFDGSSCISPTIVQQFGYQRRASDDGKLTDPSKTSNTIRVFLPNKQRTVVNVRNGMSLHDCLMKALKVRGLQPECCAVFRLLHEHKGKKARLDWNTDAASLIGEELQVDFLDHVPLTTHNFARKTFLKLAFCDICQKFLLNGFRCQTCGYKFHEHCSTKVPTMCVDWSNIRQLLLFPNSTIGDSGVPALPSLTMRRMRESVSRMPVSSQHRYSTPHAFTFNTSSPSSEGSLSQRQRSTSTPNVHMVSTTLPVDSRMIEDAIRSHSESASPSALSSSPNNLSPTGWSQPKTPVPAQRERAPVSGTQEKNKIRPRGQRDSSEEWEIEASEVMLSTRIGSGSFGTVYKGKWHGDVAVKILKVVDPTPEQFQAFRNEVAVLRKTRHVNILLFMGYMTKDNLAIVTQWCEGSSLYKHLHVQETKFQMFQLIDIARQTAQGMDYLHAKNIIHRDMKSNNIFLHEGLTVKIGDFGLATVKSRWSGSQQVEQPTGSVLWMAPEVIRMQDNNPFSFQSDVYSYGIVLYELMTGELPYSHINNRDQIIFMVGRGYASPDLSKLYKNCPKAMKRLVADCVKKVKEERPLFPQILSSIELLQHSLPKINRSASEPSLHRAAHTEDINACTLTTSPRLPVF

Biological target: C-Raf FL (full-length C-Raf with Y340E and Y341E activating mutations) (Homo sapiens (Human), UniProt P04049, Y340E/Y341E)
Assay type: biochemical
Details: full-length c-Raf 4 pM, ATP 3 uM, 10 nM biotinylated MEK1 kinase dead

Compared with `COC(=O)NCCn1cc(-c2cc(NC(=O)c3cccc(C(F)(F)F)c3)cnc2C)cc(N2CCOCC2)c1=O` [Example 193], `Cc1ccc(NC(=O)c2cccc(C(F)(F)F)c2)cc1-c1cc(N2CCOCC2)c2oc(=O)[nH]c2c1` [Example 207] is 1.69 log units higher in pIC50: 7.96 for the first, 9.65 for the second. The second is the more potent here.

Going from `Cc1ccc(NC(=O)c2cccc(C(F)(F)F)c2)cc1-c1cc(N2CC3CC(C2)O3)c(=O)n(C)c1` [Example 201] to `Cc1ccc(NC(=O)c2ccnc(C(F)F)c2)cc1-c1cc(N2CCOCC2)c(=O)n(C)c1` [Example 215, 2-(difluoromethyl)-N-(4-methyl-3-(1-methyl-5-morpholino-6-oxo-1,6-dihydropyridin-3-yl)phenyl)isonicotinamide], the pIC50 rises from 8.70 to 9.11 (0.41 log units).

Going from `Cc1ccc(NC(=O)c2cccc(C(F)(F)F)c2)cc1-c1nc(N2CCOCC2)c2sccc2n1` [Example 204] to `Cc1ccc(NC(=O)c2cccc(C(F)(F)F)c2)cc1-c1cc2[nH]cnc2c(N2CCOCC2)n1` [Example 209], the pIC50 falls from 10.41 to 9.77 (0.64 log units). The first is the more potent here.

Going from `Cc1ccc(NC(=O)c2cccc(C(F)(F)F)c2)cc1-c1cn2ccnc2c(N2CCOC[C@H]2C)n1` [Example 205] to `Cc1ccc(NC(=O)c2ccnc(C(C)(C)C#N)c2)cc1-c1cc2[nH]cnc2c(N2CCOC[C@H]2C)n1` [Example 210], the pIC50 falls from 9.73 to 8.56 (1.17 log units). The first is the more potent here.

`Cc1ccc(NC(=O)c2ccnc(C(C)(C)C#N)c2)cc1-c1cc2[nH]cnc2c(N2CCOCC2)n1` [Example 206] and `Cc1ccc(NC(=O)c2cccc(C(F)(F)F)c2)cc1-c1cc(N2CCOCC2)cc2[nH]c(=O)oc12` [Example 208] are within 0.2 log units of each other in pIC50: 8.79 for the first, 8.96 for the second.

In the case of `Cc1ncc(NC(=O)c2cc(C(F)(F)F)cc(S(C)(=O)=O)c2)cc1-c1ccnc(N2CCOCC2)c1` [Example 214], the pIC50 was 9.26.
